Values of other authors, collected in patent US9689841B2, “Fluorescent pI markers for isoelectric focusing separations and fluorescent labeling” (The Texas A&M University System, priority 2011, dated 2017).

Conditions: second (higher) of the two pKa values; cited from earlier work

O=C(O)c1cccnc1 [pyridine-3-carboxylic acid]
pKa: 4.66
